Assay results reported in US11859205B2, “Medium for culturing stem cells” (AJINOMOTO CO., INC., priority 2013, dated 2024).

What was measured:
iPS cells [1] = experiment: Viable iPS cell number with human serum albumin of varying purification level (Example 3, FIG. 3); format: cell-based; conditions: albumin 2.6 g/L; 13,000 cells/well seeded; cultured 1 week
Experimental: (§1) Proliferative effect of various test compounds on induced pluripotent stem cell (iPS cell) was evaluated. As the iPS cell, 201B7 strain purchased from iPS Academia Japan, Inc. was used. Cell culture was performed under conditions of 5% CO2/37° C. and using a culture vessel (Nippon Becton Dickinson Company, Ltd., Falconculture petri dish or Falconculture plate) coated with a basal membrane matrix.
(§2) Various test compounds were added at given concentrations to a medium of “E8” composition (disclosed in Nature Methods, 2011, 8, 424-429, which is incorporated herein by reference in its entirety) currently considered to be the minimum composition for cultivating human pluripotent stem cells, and used for culture, from which the effect was studied.
Each above-mentioned group of human serum albumin was added to a medium at a final concentration of 2.6 g/L, and iPS cells were cultured. A 6-well plate coated with a fragment containing an active domain of laminin 511 at 5 μg/well (iMatrix-511 (Nippi, Incorporated)) as a basal membrane matrix was used. iPS cells were single-cell seeded at 13,000 cells/well and cultured for 1 week. Y-27632 (NACALAI TESQUE, INC.: 08945-84) was added at a final concentration of 10 μM only to a medium to be used for seeding.
The cells were detached from each well by TrypLE Select (Life Technologies: 12563-011), and the number of viable cells was measured. […]

[2] = tested on: induced pluripotent stem cell (iPS cell) 201B7 strain; experiment: Culture of iPS cells in albumin-added medium, culture results with ALP staining (Example 1); format: cell-based, human; design: key: +: when the albumin after a purification treatment was added to the medium, the cells proliferated; −: the cells did not proliferate except a part thereof; conditions: albumin 2.6 g/L in medium, culture 1 week, triplicate
Experimental: as §1, §2
Human serum-derived albumin was added to a medium to a final concentration of 2.6 g/L, and the culture results of each albumin were compared. Several kinds of albumins were subjected to a purification treatment (fatty acid removal treatment) to remove lipid. The culture period was 1 week. 13,000 viable cells were seeded as single-cell per well of a 6-well plate. As a basal membrane matrix, a fragment containing an active domain of laminin 511, which was purchased from Osaka University, was applied at 5 μg/well. Y-27632 was added (final concentration 10 μM, NACALAI TESQUE, INC.: 08945-84) to a medium to be used for seeding. From the next day, the cells were cultured in a medium free of Y-27632.
After the culture for 1 week, alkaline phosphatase (ALP) staining was performed to confirm maintenance of undifferentiation potency. For staining, alkaline phosphatase staining kit (Sigma-Aldrich Co. LLC.: 86-R) was used. […] However, when the albumin after a purification treatment was added to the medium, the cells proliferated. In addition, the amount of fatty acid carried (fatty acid content) of all these albumins was measured to find the results shown in Table 1.

iPS cells [3] = experiment: Differentiation rate of iPS cells by alkaliphosphatase (ALP) staining (Example 3); format: cell-based, human; conditions: further cultured for 1 week after the first 1 week culture
Experimental: Groups (I) to (III) were further cultured for 1 week after the above-mentioned culture, and the differentiation rate was measured by alkaliphosphatase (ALP) staining. The differentiation rate (%) was calculated by ALP negative colony number/total colony number×100 of each well. The differentiation rates of groups (I), (II), and (III) were 0.4%, 1.5% and 2.6%, respectively. […] Similar results were also obtained by observation of colony under a microscope, and it was confirmed that a higher purification level of albumin leads to the maintenance of undifferentiated state of iPS cells at a higher rate.

[4] = purification + (treatment with activated carbon)

Substance	culture results ([2]; purification −)	differentiation rate (ALP negative colony number/total colony number×100) (iPS cells [3])	also measured
Group (IV): Human serum-derived albumin (NOVA Biologics) purified with 25 wt % activated carbon at pH 7			effect on iPS cell growth (in words) (iPS cells [1]): clear growth inhibitory action
albumin B: Human serum-derived albumin, used unpurified, purified with activated carbon, or re-adsorbed with fatty acid	−		culture results [2, 4]: +
albumin C: Human serum-derived albumin, used unpurified or purified with activated carbon	−		culture results [2, 4]: +
albumin A: Human serum-derived albumin, commercially obtained, used without purification	+		
Group (III): Human serum-derived albumin (NOVA Biologics) purified with 50 wt % activated carbon at pH 7		2.6%	
Group (V): Human serum-derived albumin (NOVA Biologics) purified with 13 wt % activated carbon at pH 7			effect on iPS cell growth (in words) (iPS cells [1]): clear growth inhibitory action
Group (II): Human serum-derived albumin (NOVA Biologics) purified with 50 wt % activated carbon at pH 4		1.5%	
Group (I): Human serum albumin (Sigma) treated by a fatty acid removal treatment		0.4%	
